According to PubChem BioAssay (NCI):
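Dose response: 5 concentrations. Exposure: 48 h. Format: 96-well plates. Endpoint: linear interpolation; highest concentration if not reached. The concentration for full growth arrest is given as TGI.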

Tests used:
Assay in all cases: NCI-60 cell line screen, 48 h
[1] = test system: 786-0 renal
[2] = test system: A498 renal
[3] = test system: A549 NSCLC
[4] = test system: ACHN renal
[5] = test system: BT-549 breast
[6] = test system: CAKI-1 renal
[7] = test system: CCRF-CEM leukemia
[8] = test system: COLO 205 colon
[9] = test system: DU-145 prostate
[10] = test system: EKVX NSCLC
[11] = test system: HCC-2998 colon
[12] = test system: HCT-116 colon
[13] = test system: HCT-15 colon
[14] = test system: HL-60(TB) leukemia
[15] = test system: HOP-62 NSCLC
[16] = test system: HOP-92 NSCLC
[17] = test system: HS 578T breast
[18] = test system: HT29 colon
[19] = test system: IGROV1 ovarian
[20] = test system: K-562 leukemia
[21] = test system: KM12 colon
[22] = test system: LOX IMVI melanoma
[23] = test system: M14 melanoma
[24] = test system: MALME-3M melanoma
[25] = test system: MCF7 breast
[26] = test system: MDA-MB-231 breast
[27] = test system: MDA-MB-435
[28] = test system: MDA-N
[29] = test system: MOLT-4 leukemia
[30] = test system: NCI-H226 lung
[31] = test system: NCI-H23 lung
[32] = test system: NCI-H322M lung
[33] = test system: NCI-H460 lung
[34] = test system: NCI-H522 lung
[35] = test system: NCI/ADR-RES ovarian
[36] = test system: OVCAR-3 ovarian
[37] = test system: OVCAR-4 ovarian
[38] = test system: OVCAR-5 ovarian
[39] = test system: OVCAR-8 ovarian
[40] = test system: PC-3 prostate
[41] = test system: RPMI-8226 leukemia
[42] = test system: RXF 393 renal
[43] = test system: SF-268 CNS
[44] = test system: SF-295 CNS
[45] = test system: SF-539 CNS
[46] = test system: SK-MEL-2 melanoma
[47] = test system: SK-MEL-28 melanoma
[48] = test system: SK-MEL-5 melanoma
[49] = test system: SK-OV-3 ovarian
[50] = test system: SN12C renal
[51] = test system: SNB-19 CNS
[52] = test system: SNB-75 CNS
[53] = test system: SR leukemia
[54] = test system: SW-620 colon
[55] = test system: T-47D breast
[56] = test system: TK-10 renal
[57] = test system: U251 CNS
[58] = test system: UACC-257 melanoma
[59] = test system: UACC-62 melanoma
[60] = test system: UO-31 renal

CC(=O)n1c(=O)n(C2CCN(CCCC(=O)c3ccc(F)cc3)CC2)c2ccccc21
TGI [1]: 91.5 µM | TGI [2]: > 100 µM | TGI [3]: > 100 µM | TGI [4]: > 100 µM | TGI [5]: > 100 µM | TGI [6]: > 100 µM | TGI [7]: 75.9 µM | TGI [8]: 35 µM | TGI [9]: > 100 µM | TGI [10]: > 100 µM | TGI [11]: 83.4 µM | TGI [12]: > 100 µM | TGI [13]: > 100 µM | TGI [14]: 31.8 µM | TGI [15]: 87.2 µM | TGI [16]: > 100 µM | TGI [17]: > 100 µM | TGI [18]: 64.2 µM | TGI [19]: > 100 µM | TGI [20]: 53.7 µM | TGI [21]: > 100 µM | TGI [22]: 60.1 µM | TGI [23]: 42.9 µM | TGI [24]: 43.3 µM | TGI [25]: 80.8 µM | TGI [26]: > 100 µM | TGI [27]: 88.7 µM | TGI [28]: > 100 µM | TGI [29]: 44.2 µM | TGI [30]: 93.7 µM | TGI [31]: > 100 µM | TGI [32]: > 100 µM | TGI [33]: > 100 µM | TGI [34]: > 100 µM | TGI [35]: > 100 µM | TGI [36]: 98.1 µM | TGI [37]: > 100 µM | TGI [38]: > 100 µM | TGI [39]: > 100 µM | TGI [40]: > 100 µM | TGI [41]: 53.1 µM | TGI [42]: > 100 µM | TGI [43]: > 100 µM | TGI [44]: > 100 µM | TGI [45]: 59.4 µM | TGI [46]: 95.7 µM | TGI [47]: 70.3 µM | TGI [48]: 29.2 µM | TGI [49]: > 100 µM | TGI [50]: > 100 µM | TGI [51]: > 100 µM | TGI [52]: > 100 µM | TGI [53]: 38.8 µM | TGI [54]: > 100 µM | TGI [55]: 86.9 µM | TGI [56]: > 100 µM | TGI [57]: > 100 µM | TGI [58]: 45.7 µM | TGI [59]: 87.3 µM | TGI [60]: 94.6 µM
